Values of other authors as cited in US12178871B2 (priority 2018, dated 2024).

System: nucleases
Conditions: cited from earlier work

polyinosinic-polycytidylic acid with poly-L-lysine and carboxymethyl cellulose
resistance to hydrolysis by the nucleases relative to PIC: 5-10 times
